US7399744B2, “Methods for affecting body composition” (Amylin Pharmaceuticals, Inc., priority 2004, dated 2008)

Key:
amylin receptors = target: T1, amylin receptors (Rattus norvegicus, UniProt P32214+Q9JJ74); experiment: Receptor binding assay (competition with 125I Bolton Hunter rat amylin, basal forebrain membranes); conditions: for IC50: read-out: Receptor Binding
T1 construct: This basal forebrain tissue, containing the nucleus accumbens and surrounding regions, was weighed and homogenized; from tissue; host or cells: rat basal forebrain (nucleus accumbens and surrounding regions) membranes
T1 sequence (P32214 25-516): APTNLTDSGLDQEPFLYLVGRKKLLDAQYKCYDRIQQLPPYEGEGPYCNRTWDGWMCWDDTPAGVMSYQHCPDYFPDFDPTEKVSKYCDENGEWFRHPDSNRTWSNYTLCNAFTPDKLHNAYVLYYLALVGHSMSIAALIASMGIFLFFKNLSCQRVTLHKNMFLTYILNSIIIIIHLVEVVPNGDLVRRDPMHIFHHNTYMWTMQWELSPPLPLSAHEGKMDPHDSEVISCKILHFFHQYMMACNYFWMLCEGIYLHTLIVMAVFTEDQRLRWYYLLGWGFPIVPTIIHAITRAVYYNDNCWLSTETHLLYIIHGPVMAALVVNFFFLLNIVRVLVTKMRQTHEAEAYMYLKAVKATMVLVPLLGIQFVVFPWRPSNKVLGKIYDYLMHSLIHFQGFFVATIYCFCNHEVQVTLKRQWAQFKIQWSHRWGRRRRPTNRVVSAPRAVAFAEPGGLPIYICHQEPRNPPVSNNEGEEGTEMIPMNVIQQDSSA
T1 sequence (Q9JJ74 27-148): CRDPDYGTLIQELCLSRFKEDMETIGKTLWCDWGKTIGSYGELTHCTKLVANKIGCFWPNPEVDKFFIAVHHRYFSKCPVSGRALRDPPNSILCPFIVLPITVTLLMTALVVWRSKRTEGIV

[1] = Amylin versus pramlintide in DIO Levin rats (Example 5); assay type: in vivo, rat; conditions: 76 nmol/kg/day by osmotic mini-pump for 24 days
[2] = Solubility and stability compared to human amylin; assay type: physicochemical
[3] = Adsorption onto glass container in liquid form; assay type: physicochemical
[4] = test system: insulin-stimulated glycogen synthesis in soleus muscle; experiment: Soleus muscle assay; assay type: cell-based, rat; conditions: for EC50: rat soleus muscle, […] insulin, inhibition of glucose incorporation into glycogen

| compete with amylin in the receptor binding assay (amylin receptors) | IC50 (amylin receptors) [nM] | solubility and stability characteristics when compared to human amylin [2] | EC50 [4] [nM] | SMILES | slowing body weight gain [1] | effects on body composition ([1]; rodent NMR) | tendency to adsorb onto the glass in a glass container [3] | amylin agonist action in the soleus muscle assay [4] | antagonist activity as measured by the soleus muscle assay [4] |
| --- | --- | --- | --- | --- | --- | --- | --- | --- | --- |
| compete with amylin | 0.01 | more desirable | 3.71 | CC[C@H](C)[C@H](NC(=O)[C@@H]1CCCN1C(=O)CNC(=O)[C@H](Cc1ccccc1)NC(=O)[C@H](CC(N)=O)NC(=O)[C@H](CC(N)=O)NC(=O)[C@H](CO)NC(=O)[C@H](CO)NC(=O)[C@H](Cc1c[nH]cn1)NC(=O)[C@@H](NC(=O)[C@H](CC(C)C)NC(=O)[C@H](Cc1ccccc1)NC(=O)[C@H](CC(N)=O)NC(=O)[C@H](C)NC(=O)[C@H](CC(C)C)NC(=O)[C@H](CCCNC(=N)N)NC(=O)[C@H](CCC(N)=O)NC(=O)[C@@H](NC(=O)[C@H](C)NC(=O)[C@@H]1CSSC[C@H](NC(=O)[C@@H](N)CCCCN)C(=O)N[C@@H](CC(N)=O)C(=O)N[C@@H]([C@@H](C)O)C(=O)N[C@@H](C)C(=O)N[C@@H]([C@@H](C)O)C(=O)N1)[C@@H](C)O)C(C)C)C(=O)N[C@@H](CC(C)C)C(=O)N1CCC[C@H]1C(=O)N1CCC[C@H]1C(=O)N[C@H](C(=O)N[C@@H](CC(N)=O)C(=O)N[C@H](C(=O)NCC(=O)N[C@@H](CO)C(=O)N[C@@H](CC(N)=O)C(=O)N[C@H](C(=O)N[C@@H](Cc1ccc(O)cc1)C(N)=O)[C@@H](C)O)C(C)C)[C@@H](C)O [^25,28,29Pro-h-Amylin] | significant effect | favorable effects | does not have a tendency to adsorb onto the glass | act as amylin agonists | negligible |
| compete with amylin | 0.018 | more desirable | 4.68 | CC(C)C[C@H](NC(=O)[C@H](CCCNC(=N)N)NC(=O)[C@H](CCC(N)=O)NC(=O)[C@@H](NC(=O)[C@H](C)NC(=O)[C@@H]1CSSC[C@H](NC(=O)[C@@H](N)CCCCN)C(=O)N[C@@H](CC(N)=O)C(=O)N[C@@H]([C@@H](C)O)C(=O)N[C@@H](C)C(=O)N[C@@H]([C@@H](C)O)C(=O)N1)[C@@H](C)O)C(=O)N[C@@H](C)C(=O)N[C@@H](CC(N)=O)C(=O)N[C@@H](Cc1ccccc1)C(=O)N[C@@H](CC(C)C)C(=O)N[C@H](C(=O)N[C@@H](Cc1c[nH]cn1)C(=O)N[C@@H](CO)C(=O)N[C@@H](CO)C(=O)N[C@@H](CC(N)=O)C(=O)N[C@@H](CC(N)=O)C(=O)N[C@@H](Cc1ccccc1)C(=O)NCC(=O)N1CCC[C@H]1C(=O)N[C@H](C(=O)N[C@@H](CC(C)C)C(=O)N1CCC[C@H]1C(=O)N1CCC[C@H]1C(=O)N[C@H](C(=O)N[C@@H](CC(N)=O)C(=O)N[C@H](C(=O)NCC(=O)N[C@@H](CO)C(=O)N[C@@H](CC(N)=O)C(=O)N[C@H](C(=O)N[C@@H](Cc1ccc(O)cc1)C(N)=O)[C@@H](C)O)C(C)C)[C@@H](C)O)C(C)C)C(C)C [^25Pro^26Val^28,29Pro-h-Amylin] | – | – | – | act as amylin agonists | negligible |
